# Measured affinities in a library of Ab-91 heavy chain variants

Reference: Engelhart et al. 2022, doi:10.1038/s41597-022-01779-4. File: FLAb, binding data.

Target: peptide PDVDLGDISGINAS, taken from heptad repeat 2 (HR2) of SARS-CoV-2 spike.

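The starting antibody came from a phage panning campaign against this peptide. AAYL51 was designed without a model: most single CDR substitutions and a random sample of double and triple ones. In AlphaSeq, yeast of one mating type display the scFv and yeast of the other type display the target. After mating in shaken culture at 30 °C for 16 h, diploids were selected and their barcode pairs sequenced. A regression on co-assayed BCL2-family reference pairs converts the normalised counts of each replicate to an apparent Kd. The assay was run in three technical replicates.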

The variants keep the light chain, the linker and the frameworks of Ab-91 (scFv order VL, a (GGGGS)3 linker, VH).
VL: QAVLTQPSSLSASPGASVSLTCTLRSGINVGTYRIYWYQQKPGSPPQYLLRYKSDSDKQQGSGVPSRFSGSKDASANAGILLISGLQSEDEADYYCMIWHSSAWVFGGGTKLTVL
VH: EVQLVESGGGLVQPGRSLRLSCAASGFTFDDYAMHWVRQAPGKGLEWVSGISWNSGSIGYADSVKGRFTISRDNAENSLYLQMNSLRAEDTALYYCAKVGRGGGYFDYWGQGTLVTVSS

Changes read parent residue, position, new residue, counted from the first residue of the VH shown. The read-out is the apparent dissociation constant on a log10 scale (nM): the lower, the stronger. An entry "n.d." has no value in the source: the pair was not observed among the diploids in that replicate. This suggests poor binding but is not conclusive. Nonspecific signal, from three strains lacking the peptide, appeared in 21% of pairings of library AAYL51, centred on 4.54 (5% of these signals below 3.26); values are not corrected for it. The control count says in how many pairings with the empty strains this scFv gave a signal, with their mean in brackets. In this assay the parent's reference entry averaged 1.86; its copy inside this library read 0.88.

{"changes": "F27G+N54E+S63Y", "log10 Kd, replicates": "n.d. n.d. n.d.", "empty controls": "0/9"}
{"changes": "F29H+D62G+V64H", "log10 Kd, replicates": "n.d. n.d. n.d.", "empty controls": "1/9 (3.75)"}
{"changes": "G26E+F27R+G56F", "log10 Kd, replicates": "1.60 1.54 0.89", "empty controls": "0/9"}
{"changes": "D31C+I51V+W53L", "log10 Kd, replicates": "5.77 5.33 4.78", "empty controls": "2/9 (5.57)"}
{"changes": "D30P+G59P+Y108W", "log10 Kd, replicates": "n.d. n.d. 3.44", "empty controls": "2/9 (3.85)"}
{"changes": "W53L+V64T+G104V", "log10 Kd, replicates": "n.d. 4.79 n.d.", "empty controls": "0/9"}
{"changes": "M34Y+K65D+V99Q", "log10 Kd, replicates": "4.34 5.13 n.d.", "empty controls": "3/9 (4.88)"}
{"changes": "D30S+S57R+G59Y", "log10 Kd, replicates": "n.d. n.d. 5.43", "empty controls": "5/9 (4.64)"}
{"changes": "I51V+S52N+K65Y", "log10 Kd, replicates": "2.26 n.d. 2.11", "empty controls": "0/9"}
{"changes": "S57Q+I58H+G104A", "log10 Kd, replicates": "4.78 n.d. n.d.", "empty controls": "2/9 (4.69)"}
{"changes": "G26Q+V99A+G103Q", "log10 Kd, replicates": "4.38 6.28 5.77", "empty controls": "6/9 (4.61)"}
{"changes": "D62V+G100Q+D107F", "log10 Kd, replicates": "n.d. 5.65 n.d.", "empty controls": "4/9 (4.70)"}
{"changes": "D62C+K65Y+Y108D", "log10 Kd, replicates": "3.17 3.04 3.27", "empty controls": "4/9 (5.00)"}
{"changes": "G56C+V64E+G100P", "log10 Kd, replicates": "4.91 n.d. n.d.", "empty controls": "0/9"}
{"changes": "G100Q+G102H", "log10 Kd, replicates": "4.27 4.56 4.83", "empty controls": "3/9 (4.55)"}
{"changes": "F29A+I51F", "log10 Kd, replicates": "n.d. n.d. n.d.", "empty controls": "0/9"}
{"changes": "D31A+A33R+I51E", "log10 Kd, replicates": "n.d. 4.79 n.d.", "empty controls": "1/9 (4.63)"}
{"changes": "M34T+H35F+S55Y", "log10 Kd, replicates": "3.74 5.07 n.d.", "empty controls": "0/9"}
{"changes": "G26Q+F27N+G50D", "log10 Kd, replicates": "n.d. n.d. n.d.", "empty controls": "0/9"}
{"changes": "D30C+V64N+F106P", "log10 Kd, replicates": "4.06 5.43 5.17", "empty controls": "5/9 (4.51)"}
{"changes": "Y60D+Y105H+D107A", "log10 Kd, replicates": "3.93 4.27 4.17", "empty controls": "3/9 (4.79)"}
{"changes": "Y60F+V99C+G103R", "log10 Kd, replicates": "n.d. 5.46 5.31", "empty controls": "2/9 (4.97)"}
{"changes": "Y32M+S52P+G100A", "log10 Kd, replicates": "6.50 5.40 5.59", "empty controls": "4/9 (5.04)"}

For reference, 3 entries of the list once more:

{"changes": "Y60F+V99C+G103R", "log10 Kd, replicates": "n.d. 5.46 5.31", "empty controls": "2/9 (4.97)"}
{"changes": "F27G+N54E+S63Y", "log10 Kd, replicates": "n.d. n.d. n.d.", "empty controls": "0/9"}
{"changes": "D62C+K65Y+Y108D", "log10 Kd, replicates": "3.17 3.04 3.27", "empty controls": "4/9 (5.00)"}